Reference: publication PMC11187217, “Anti-adhesive, anti-biofilm and fungicidal action of newly synthesized gemini quaternary ammonium salts” (Scientific Reports, 2024)

Test system: Salmonella Typhimurium TA98
Test: Mutagenicity, Ames test
Settings: TA98, positive control 100 μg/mL
Protocol: The mutagenic potential of the tested gemini QAS was determined using the Ames test[83] using Salmonella Typhimurium TA98 and Salmonella Typhimurium TA100 with defects in histidine biosynthesis. The culture of S. Typhimurium TA98 and S. Typhimurium TA100 was incubated with shaking at 37 °C for 18 h, centrifuged (3000 rpm, 5 min) and OD = 1.5 was determined, at a wavelength of λ = 590 nm. The agar was dissolved and cooled to 42 °C. […] The media were incubated for 48 h at 37 °C. The positive control for the S. Typhimurium TA98 strain was acriflavin (100 μg/ml), and for the S. Typhimurium TA100 strain, sodium azide (15 μg/ml). The negative control was the culture without tested compound and with NaCl (0,9%). After incubation, the colonies were counted and the mutagenicity index (MR) was determined—the ratio of the number of revertants resulting from the mutagenic effect of the tested compound to the number of spontaneous revertants. Experiment was performed in three repetitions.

acriflavine [reference compound]
Mutagenicity ratio (MR): 2.85
Number of colonies (± SD): 65.0 ± 1
